The target in the experiment is T1, calcitonin receptor (CTR) (Homo sapiens, UniProt P30988).
T1 sequence (P30988 25-474): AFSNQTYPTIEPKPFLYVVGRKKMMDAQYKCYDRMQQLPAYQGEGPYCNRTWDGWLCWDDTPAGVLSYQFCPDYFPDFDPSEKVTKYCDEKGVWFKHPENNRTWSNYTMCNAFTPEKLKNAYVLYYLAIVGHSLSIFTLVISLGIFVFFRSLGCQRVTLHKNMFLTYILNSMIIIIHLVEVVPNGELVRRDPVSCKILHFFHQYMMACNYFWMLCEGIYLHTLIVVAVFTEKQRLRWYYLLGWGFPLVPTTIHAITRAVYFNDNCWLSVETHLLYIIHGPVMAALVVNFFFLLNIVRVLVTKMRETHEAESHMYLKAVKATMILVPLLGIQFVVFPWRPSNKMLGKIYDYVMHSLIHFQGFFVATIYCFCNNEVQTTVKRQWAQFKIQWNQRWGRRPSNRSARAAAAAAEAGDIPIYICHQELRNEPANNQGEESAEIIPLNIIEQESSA
As to the kind of experiment: cAMP accumulation assay, U2OS Red cAMPNomad-CALCR cell line. In kind it is cell-based. Particulars: U2OS Red cAMPNomad-CALCR cells, overnight incubation. Set-up: expressed in transfected cells; host or cells: U2OS Red cAMPNomad-CALCR.

Several values for one entry are separate records, joined by “and”; a condition that tells them apart may be missing. Equal values may be shown once.

The term EC50 denotes the concentration needed to bring the measured effect to its halfway point. Take `CC[C@H](C)[C@H](NC(=O)[C@H](C)NC(=O)[C@@H](NC(=O)[C@H](CCC(N)=O)NC(=O)[C@@H]1CCCN1C(=O)[C@H](Cc1ccccc1)NC(=O)[C@@H](NC(=O)[C@H](Cc1c[nH]cn1)NC(=O)[C@H](Cc1ccccc1)NC(=O)[C@H](CCCCN)NC(=O)[C@H](CC(N)=O)NC(=O)[C@H](Cc1ccccc1)NC(=O)[C@H](CC(=O)O)NC(=O)[C@H](CCC(N)=O)NC(=O)[C@@H](NC(=O)[C@H](Cc1ccc(O)cc1)NC(=O)[C@@H](NC(=O)CNC(=O)[C@H](CC(C)C)NC(=O)[C@H](CCSC)NC(=O)[C@@H]1CSSC[C@H](N)C(=O)NCC(=O)N[C@@H](CC(N)=O)C(=O)N[C@@H](CC(C)C)C(=O)N[C@@H](CO)C(=O)N[C@@H]([C@@H](C)O)C(=O)N1)[C@@H](C)O)[C@@H](C)O)[C@@H](C)O)[C@@H](C)O)C(=O)NCC(=O)N[C@H](C(=O)NCC(=O)N[C@@H](C)C(=O)N1CCC[C@H]1C(N)=O)C(C)C` [hCT, reference compound]: the EC50 was 7.78 nM and 7.8 nM.
